Measurements: US20130045160A1, “Magnetic Nano-Composite for Contrast Agent, Intelligent Contrast Agent, Drug Delivery Agent for Simultaneous Diagnosis and Treatment, and Separation Agent for Target Substance” (Industry-Academic Coorporation Foundation, Yonsei University, priority 2006, published 2013)

Test system: NIH3T6.7 cell and MDA-MB-231 cell
Assay: Cytotoxicity test (degree of inhibiting cell growth, MTT agent)
Format: cell-based
[1] = 4 h exposure, 72 h growth, equivalent herceptin and DOX

herceptin-magnetic nanocomposite enclosing DOX
cytotoxicity compared with herceptin and DOX together [1]: higher than that of the case acted by herceptin and DOX together
cytotoxicity compared with herceptin and DOX using nanoparticles [1]: much higher than that of the case that herceptin and DOX were reacted with the cells, using nanoparticles
combined effect of treating cancer cells (conclusion from cytotoxicity results): synergistic effect of treating cancer cells selectively
